For the series, the system named is MDR1 expression. The experiment in a line: Inhibition of cytotoxic drug-induced MDR1 expression by protein kinase inhibitors (cDNA-PCR). The following applies: concentration not stated.

We go through 1 substance from US6171786A, “Methods for preventing multidrug resistance in cancer cells” (priority 1996, dated 2001).

Consider neomycin sulfate, for which the “inhibition of MDR1 induction by cytotoxic drugs” value is “capable of inhibiting MDR1 induction by cytotoxic drugs”.
